Reference: patent publication US4183910A, “Method for testing to predict and/or diagnose allergy to penicillins, and compounds and compositions for use in such tests” (priority 1978, dated 1980)

System: patients known to give positive skin test to penicillin derivatives
Assay: Intradermal skin test with BPO-amines and other penicillin allergy skin test materials (Table II)
Format: in vivo, human
From the text: Benzylpenicilloyl-polylysine (BPL) was a heterogeneous PPL preparation averaging benzylpenicilloyl7 -polylysine9 (B7 L9) at 1×10^-6 M concentration of the conjugate in tris-buffered saline at pH 8.2.
Benzylpenicillin (PG) was 1.0×10^-2 M in 0.11M saline.
Sodium benzylpenicilloate plus sodium benzylpenilloate (P/P) was 1.0×10^-2 M of each dissolved in phosphate buffered saline at pH 7.5.
Benzylpenicilloyl-amine (BPO-amine) was 1.0×10^-2 M concentration phosphate buffered saline at pH 7.5.
Benzylpenicilloyl-n-propyl amine and benzylpenicilloyl-n-ethyl amine (as α-diastereoisomers) were each dissolved to 1.0×10^-2 M concentration in phosphate buffered saline at pH 7.5.
There were nine patients known to give positive skin test to penicillin derivatives. They were healthy men and women ranging in age from 23 to 56 years. Ten people negative to the skin test materials served as controls.
Using 1.0 ml tuberculin syringes with #26 needles and intradermal bevels, 0.01 ml volumes of the test materials were injected intradermally into the anterior-lateral aspects of the arms. Skin tests were read in 15 minutes. A negative reaction is the poorly outlined bleb of fluid --1-3 mm in diameter without surrounding erythema. Positive tests were sharply outlined wheals of 4-20 mm diameter with surrounding erythema. The positive tests were graded as 1+,2+,3+ and 4+ on the basis of wheal diameter. 1+=4-6 mm; 2+=7-9 mm; 3+=10-12 mm; and 4+=more than 13 mm with pseudopods. The stronger reactionshad wider circles of surrounding erythema which were more intensely red. Skin tests were done in duplicate. Duplicates gave identical or nearly identical readings.

Benzylpenicilloyl-polylysine [BPL]
Intensity of reactions in patients: patient gamma (patient eight, intradermal 0.01 ml, read in 15 minutes, BPL 1 × 10^-6 M, other materials 1 × 10^-2 M): 4+ (4+=more than 13 mm with pseudopods)
Intensity of reactions in patients: patient eta (patient five, intradermal 0.01 ml, read in 15 minutes, BPL 1 × 10^-6 M, other materials 1 × 10^-2 M): 0 (A negative reaction is the poorly outlined bleb of fluid --1-3 mm in diameter without surrounding erythema)
Intensity of reactions in patients: patient alpha (patient four, intradermal 0.01 ml, read in 15 minutes, BPL 1 × 10^-6 M, other materials 1 × 10^-2 M): 0 (A negative reaction is the poorly outlined bleb of fluid --1-3 mm in diameter without surrounding erythema)
Skin test reaction of patient four, in words (patient four, text summary of Table II): entirely negative
Intensity of reactions in patients: patient iota (patient nine, intradermal 0.01 ml, read in 15 minutes, BPL 1 × 10^-6 M, other materials 1 × 10^-2 M): 1+ (1+=4-6 mm)
Intensity of reactions in patients: patient zeta (patient one, intradermal 0.01 ml, read in 15 minutes, BPL 1 × 10^-6 M, other materials 1 × 10^-2 M): 1+ (1+=4-6 mm)
Intensity of reactions in patients: patient epsilon (patient seven, intradermal 0.01 ml, read in 15 minutes, BPL 1 × 10^-6 M, other materials 1 × 10^-2 M): 4+ (4+=more than 13 mm with pseudopods)
Intensity of reactions in patients: delta (patient six, intradermal 0.01 ml, read in 15 minutes, BPL 1 × 10^-6 M, other materials 1 × 10^-2 M): 4+ (4+=more than 13 mm with pseudopods)
Intensity of reactions in patients: beta (patient three, intradermal 0.01 ml, read in 15 minutes, BPL 1 × 10^-6 M, other materials 1 × 10^-2 M): 0 (A negative reaction is the poorly outlined bleb of fluid --1-3 mm in diameter without surrounding erythema)
Intensity of reactions in patients: theta (patient two, intradermal 0.01 ml, read in 15 minutes, BPL 1 × 10^-6 M, other materials 1 × 10^-2 M): 3+ (3+=10-12 mm)
